The test system of the assay is MV4;11 cells. As to the kind of experiment: Cell viability, EZ-Cytox tetrazolium assay, MV4;11. It counts as cell-based. The note with it: Homo sapiens, MV4-11, 72 h, read-out: Ic50 (nM) MV4;11. How it is done:
MDA-MB-231 (metastatic breast cancer, ATCC HTB-26), Jurkat (human acute T lymphocytic leukemia, ATCC TIB-152), and K-562 (human chronic myelogenous leukemia, ATCC CCL-243) cells were cultured in RPMI-1640 (Sigma Co.). MCF7 (human breast adenocarcinoma, ATCC HTB-22) and PC-3 (human prostate adenocarcinoma, ATCC CRL-1435) cells were cultured in DMEM (Sigma Co.) medium supplemented with 10% fetal bovine serum and 1% penicillin/streptomycin. The cultured cells were incubated at 3° C. with 5% CO2.
Cell viability was assessed by a tetrazolium-based assay using the EZ-Cytox Cell Viability Assay kit (DaeilLab, Korea). Briefly, 2,000 to 15,000 cells were plated in 96-well plates in 100 μl of medium. The next day, the cells were treated with compounds together with dimethyl sulfoxide (DMSO) as a negative control. Three days (72 hours) after the drug addition, 15 μl of the EZ-Cytox kit reagent was added to each well of the 96-well plate and then incubated at 37° C. in a humidified CO2 incubator for 4 hours. After incubation, the optical density (OD) was measured at a wavelength of 450 nm using a Victor multilabel reader (Perkin Elmer, Waltham, Mass., USA). The IC50 was calculated by nonlinear regression using Prism version 5.01 (GraphPad, La Jolla, Calif., USA).

What is called IC50 is the concentration that inhibits the measured activity by half.

For `COC(=O)c1ccc2c(c1)/C(=C1/Nc3ccccc3/C1=N\O)C(=O)N2` [Compound 1, Methyl (2Z,3E)-3-(hydroxyimino)-2′-oxo-[2,3′-biindolinylidene]-5′-carboxylate], the IC50 came out at 41 nM.

These data come from patent publication US11370779B2, “Pharmaceutical composition for preventing or treating acute myeloid leukemia or metastatic breast cancer” (PELEMED CO., LTD., priority 2017, dated 2022).
